{"source": "patent US8575111B2", "about": "“Pharmaceutical compositions and methods for treating erectile dysfunction” (Universidade Federal de Minas Garais-UFMG, priority 2007, dated 2013)", "origin": "cited, not measured here", "key": {"[1]": {"biological_target": "AT1 (Homo sapiens, UniProt P30556)", "settings": "receptor AT1; cited from earlier work"}, "[2]": {"biological_target": "T1, AT2 (Homo sapiens, UniProt P50052)", "T1 sequence (P50052 1-363)": "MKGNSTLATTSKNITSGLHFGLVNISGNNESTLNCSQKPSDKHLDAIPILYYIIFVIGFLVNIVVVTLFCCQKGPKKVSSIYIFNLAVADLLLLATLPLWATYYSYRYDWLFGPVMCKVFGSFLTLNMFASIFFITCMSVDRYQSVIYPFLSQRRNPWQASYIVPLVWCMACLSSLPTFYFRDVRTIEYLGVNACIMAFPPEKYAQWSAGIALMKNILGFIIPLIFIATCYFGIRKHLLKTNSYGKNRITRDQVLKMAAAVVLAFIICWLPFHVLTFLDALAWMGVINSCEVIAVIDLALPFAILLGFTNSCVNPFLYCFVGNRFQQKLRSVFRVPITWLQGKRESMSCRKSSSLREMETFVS", "settings": "receptor AT2; cited from earlier work"}}, "note": "“Also recorded” adds a separate entry of the source."}
{"substance": "Ang II", "values": [{"measurement": "Actions", "setting": "[1]", "result": "Remodeling and cell proliferation; also recorded: Thrombosis and inflammation; also recorded: Vasoconstriction and pressor; also recorded: Increase of inotropism and; also recorded: Arrhythmogenic effect"}, {"measurement": "Actions", "setting": "[2]", "result": "Inhibition of cell proliferation; also recorded: Apoptosis; also recorded: Vasodilation"}]}
